How the values were obtained:
[1] = Body weight and tolerability in BT-474 tumor-bearing mice
[2] = tested on: BT-474 human breast adenocarcinoma; experiment: BT-474 xenograft tumor growth inhibition in athymic female mice; format: in vivo; conditions: for % Growth inhibition: 28 days
Method: The activity of the compounds of formula 1, in vivo, can be determined by the amount of inhibition of tumor growth by a test compound relative to a control. The tumor growth inhibitory effects of various compounds are measured according to the method of Corbett T. H., et al., “Tumor Induction Relationships in Development of Transplantable Cancers of the Colon in Mice for Chemotherapy Assays, with a Note on Carcinogen Structure”, Cancer Res., 35, 2434-2439 (1975) and Corbett T. H., et al., “A Mouse Colon-tumor Model for Experimental Therapy”, Cancer Chemother. Rep. (Part 2)”, 5, 169-186 (1975), with slight modifications. Tumors are induced in the left flank by subcutaneous (sc) injection of 5 million log phase cultured tumor cells (BT-474 human breast adenocarcinoma) suspended in Matrigel (1:1 in PBS). […] Rep., 3, 1-104 (1972). Results are expressed as percent inhibition, according to the formula: Inhibition (%)=(TuWcontrol−TuWtest)/TuWcontrol×100%. The flank site of tumor implantation provides reproducible dose/response effects for a variety of chemotherapeutic agents, and the method of measurement (tumor diameter) is a reliable method for assessing tumor growth rates.
Statistical Analysis: The statistical analysis of tumor growth was done using SAS Version 8, PROC GLM by Non-clinical statistical group.

[3] = Herceptin 0.1 mg/kg IP twice weekly
[4] = Herceptin 0.3 mg/kg IP twice weekly

Q: Which “Average body weight Day 1” value [1, 3] does the source give for “Herceptin: humanized monoclonal antibody that binds with high affinity to the extracellular domain of the protein-encoded by HER2” here?
A: (22) g

Q: And the “Average body weight Day 1” value [1, 4]?
A: (23) g

Q: And the “Average body weight Day 28” value [1, 3]?
A: (24) g

Q: And the “Average body weight Day 28” value [1, 4]?
A: (25) g

Q: And the “Tolerability, body weight loss, animal mortality” value ([1]; athymic mice, 28 days, all dose groups)?
A: well tolerated and there was no body weight loss or animal mortality

Q: And the “% Growth inhibition” value [2, 3]?
A: 4%

Q: What about the “% Growth inhibition” value [2, 4] of the same substance?
A: 24%

Q: And the “Tumor volume Day 28” value [2, 3]?
A: 391 ± 43 mm^3

Q: What about the “Tumor volume Day 28” value [2, 4] of the same substance?
A: 308 ± 47 mm^3

— patent US20050101618A1, “Selective erbB2 inhibitor/anti-erbB antibody combinations in the treatment of cancer” (Pfizer Inc, priority 2003, published 2005)
